Laboratory results: patent US20260200947A1, “FUSED CYCLIC COMPOUNDS AND USE THEREOF” (Jacobio Pharmaceuticals Co., Ltd., priority 2022, published 2026)

Columns and labels:
[1] = test system: AsPC-1 cells (K-Ras G12D)

Row | Structure (SMILES) | IC50 [1] | IC50 (SW620 cells (K-Ras G12V)) | IC50 (AGS cells (K-Ras G12D))
1 | C#Cc1c(F)ccc2cc(O)cc(-c3nc4c5c(nc(OC[C@@]67CCCN6C[C@H](F)C7)nc5c3F)N3CCOCC3C4=C)c12 (stereo partly drawn) [Compound 12] | 360 nM | 32.9 nM | 
2 | C#Cc1c(F)ccc2cc(N)cc(-c3nc4c5c(nc(OCC67CCCN6CC6(C7)CC6(F)F)nc5c3F)N3CCCOC[C@H]3CO4)c12 (stereo partly drawn) [Compound 25] | 232 nM | 29.7 nM | 51.6 nM
3 | C#Cc1c(F)ccc2cc(N)cc(-c3nc4c5c(nc(OC[C@@]67CCCN6C[C@H](F)C7)nc5c3F)N3CC(F)COC[C@H]3CO4)c12 (stereo partly drawn) [Compound 15] | 620 nM | 158 nM | 14.6 nM
4 | C#Cc1c(F)ccc2cc(N)cc(-c3nc4c5c(nc(OCC67CC(C)CN6C[C@H](F)C7)nc5c3F)N3CCCOC[C@H]3CO4)c12 (stereo partly drawn) [Compound 32] |  |  | 43.1 nM
5 | C#Cc1c(F)ccc2cc(N)cc(-c3nc4c5c(nc(OC[C@@]67CCCN6C[C@H](F)C7)nc5c3F)N3CCCOC[C@H]3C4=C)c12 [Compound 21] | 43.5 nM | 4.88 nM | 8.57 nM
